# Assay results taken from PubChem BioAssay AID1487 (National Center for Advancing Translational Sciences (NCATS), 2009).
# Only a part is listed here, and it is no random draw. Inconclusive results are not listed. The source made the active and inactive calls. Calls follow the shape of the dose curve; as a rule, active = well fitted inhibition curve with a large enough effect in the signal ratio, with a control signal flat (not every such curve was filed as active); inconclusive = small, poorly fitted or top-dose-only effect, or effect the other way, or a change in a side signal; inactive = flat fitted curve, though single readings scatter; the % refers to the signal ratio.
# Test: qHTS Assay for Modulators of Lamin A Splicing
# Conditions: HeLa LMNA splicing GFP/RFP minigene ratio, 48 h; at 46 µM (top of the series) unless noted
# % is scaled to controls: 0 for no effect and ±100 for the full control effect.
row,SMILES,"ratio change, negative = inhibition"
1,CC(C)c1ccc(NC2CCN(C(=O)OC(C)(C)C)CC2)cc1,inactive: 4.53%
2,CCCCOc1ccccc1C(=O)NCC1(N2CCOCC2)CCCCC1,inactive: 13.1%
3,O=C(NCC1(N2CCOCC2)CCCCC1)c1ccccc1Br,inactive: 12.5%
4,N#CC1(Nc2ccccc2)CCN(CCc2ccccc2)CC1,inactive: 3.28% [at 46.1 µM]
5,CCOc1ccc(C(=O)NCC2(N3CCOCC3)CCCCC2)cc1,inactive: 7.91%
6,CCCOc1cccc(C(=O)NCC2(N3CCOCC3)CCCCC2)c1,inactive: 15.7%
7,O=C(NCC1(N2CCOCC2)CCCCC1)c1cc(=O)[nH]c2ccccc12,inactive: 6.54% [at 46.1 µM]
8,CN1CCN(CCOC(=O)C(O)(c2ccccc2)c2ccccc2)CC1,inactive: 4.65% [at 46.1 µM]
9,COc1ccc(NC2CCN(C(=O)OC(C)(C)C)CC2)cc1,inactive: -6.72%
10,COc1ccccc1C(=O)NCC1(N2CCOCC2)CCCCC1,inactive: 18.1%
11,COc1ccc(NC2CCN(CCc3ccccc3)CC2)c(OC)c1,inactive: -3.82% [at 46.1 µM]
12,O=C(NCC1(N2CCOCC2)CCCCC1)c1cc2ccccc2o1,inactive: 2.05% [at 46.1 µM]
13,O=C(OC1CN2CCC1CC2)C1c2ccccc2Oc2ccccc21 (centres undefined),inactive: 14.3% [at 46.1 µM]
14,CCOc1ncccc1C(=O)NCC1(N2CCOCC2)CCCCC1,inactive: -1.29% [at 46.1 µM]
15,CC(C)(C)OC(=O)N1CCC(Nc2ccccc2)CC1,inactive: 13.7%
16,COc1cc(C(=O)NCC2(N3CCOCC3)CCCCC2)cc(OC)c1OC,inactive: -12.2%
17,CCC(CO)(C(=O)OC1CN2CCC1CC2)c1ccccc1 (centres undefined),inactive: 5.92% [at 46.1 µM]
18,CN(C)C1(CNC(=O)c2ccc(C(C)(C)C)cc2)CCCCC1,inactive: 9.22%
19,Fc1ccccc1NC1CCN(Cc2ccccc2)CC1,inactive: 2.7% [at 46.1 µM]
20,CCN1CCC(Nc2cccc(F)c2)CC1,inactive: 3.75% [at 46.1 µM]
21,Cc1ccccc1C(=O)NCC1(N(C)C)CCCCC1,inactive: 18.4%
22,CC(C)(C)c1ccc(C(=O)NCC2(N3CCOCC3)CCCCC2)cc1,inactive: 10.5%
23,CN(C)c1ccc(C(=O)NCC2(N3CCCCC3)CCCCC2)cc1,inactive: 3.74% [at 9.22 µM]
24,N#Cc1ccc(C(=O)NCC2(N3CCCCC3)CCCCC2)cc1,inactive: 5.47%
25,O=C(NCC1(N2CCOCC2)CCCCC1)c1ccc([N+](=O)[O-])cc1,inactive: 6.22%
26,c1ccc(CN2CCC(Nc3ccccc3)CC2)cc1,inactive: -5.32% [at 46.1 µM]
27,O=C(NCC1(N2CCOCC2)CCCCC1)c1ccccc1,inactive: -0.457%
28,N/C(=N\O)c1c(N)no[n+]1[O-],inactive: 5.93% [at 46.1 µM]
29,O=C(OC1CN2CCC1CC2)C1c2ccccc2C=Cc2ccccc21 (centres undefined),inactive: 7.85% [at 46.1 µM]
